Measured values: patent US10682316B2, “Methods for fabrication of epinephrine bitartrate nanoparticles and epinephrine bitartrate nanoparticles fabricated thereby” (NOVA SOUTHEASTERN UNIVERSITY, priority 2010, dated 2020)

Assay: Particle size measurement before and after size reduction (Mastersizer, NiComp 370, Zetasizer)
Assay type: physicochemical
Details: epinephrine base first sample in water, listed as epinephrine
Description: Nanoparticles were fabricated from epinephrine base and epinephrine bitartrate (Bit) using high energy fluidization (microfluidization) techniques. These techniques involve the use of oversaturated solutions of various solvents, particularly water and isopropanol, at various temperatures and pressures ranging from about 8,000 psi to 30,000 psi and to about 8.3° to 43.3° C. under various passes. Particle size was measured before and after size reduction using a Mastersizer (Malvern) and/or a NiComp 370 Submicron Particle Sizer (NiComp) and nano-sized particles were confirmed using laser diffraction techniques. The particles were lyophilized (freeze-dried) using a bench top lyophilizer (ART Inc.).

CNC[C@H](O)c1ccc(O)c(O)c1 [Epinephrine Base, epinephrine]
Size After Fabrication (110 F., 30 Kpsi) (nm): 273.9±179.0 nm
